Test: In-vivo pharmacokinetic test in mice
Parameters: species or system mouse
Settings: BALB/c female mice, gavage 10 mg/kg, plasma
Procedure: LC-MS/MS method is used to determine the drug concentration in the plasma of mice at different times after intragastric administration of the compound of the example. Relevant pharmacokinetic parameters are calculated to study the pharmacokinetic behavior of the compound of the present invention in mice, thereby evaluating the pharmacokinetic characteristics thereof.
Test animal was healthy adult BALB/c female mouse (provided by Chengdu Yaokang Biotechnology Co., Ltd.);
Compound administration and sample collection: compound was administered to BALB/c female mice by gavage (10 mg/kg). At 0.25, 0.5, 1, 2, 4, 6, 8, and 24 hours after administration, 60 μL of whole blood of the mouse fundus venous plexus were collected and centrifuged at 4000 rpm for 10 min to provide plasma.
Sample analysis: 10 μL of mouse plasma samples were respectively added with 290 μL of acetonitrile solution containing internal standard to precipitate proteins. After swirling for 10 min and centrifuging at 4000 rpm for 10 min, 200 μL of supernatant was added to 96-well plate, and analyzed by LC-MS/MS at an injection volume of 1 μL.

BMS-986165
AUC: 10.1 µM·h
Cmax: 4.27 µM
